{"sequences": {"note": "By UniProt entry, the sequences of proteins in these tests, tags left out. Where a name states a change or a piece, a line headed by the entry shows the natural chain unless it says otherwise.", "UniProt P22303": "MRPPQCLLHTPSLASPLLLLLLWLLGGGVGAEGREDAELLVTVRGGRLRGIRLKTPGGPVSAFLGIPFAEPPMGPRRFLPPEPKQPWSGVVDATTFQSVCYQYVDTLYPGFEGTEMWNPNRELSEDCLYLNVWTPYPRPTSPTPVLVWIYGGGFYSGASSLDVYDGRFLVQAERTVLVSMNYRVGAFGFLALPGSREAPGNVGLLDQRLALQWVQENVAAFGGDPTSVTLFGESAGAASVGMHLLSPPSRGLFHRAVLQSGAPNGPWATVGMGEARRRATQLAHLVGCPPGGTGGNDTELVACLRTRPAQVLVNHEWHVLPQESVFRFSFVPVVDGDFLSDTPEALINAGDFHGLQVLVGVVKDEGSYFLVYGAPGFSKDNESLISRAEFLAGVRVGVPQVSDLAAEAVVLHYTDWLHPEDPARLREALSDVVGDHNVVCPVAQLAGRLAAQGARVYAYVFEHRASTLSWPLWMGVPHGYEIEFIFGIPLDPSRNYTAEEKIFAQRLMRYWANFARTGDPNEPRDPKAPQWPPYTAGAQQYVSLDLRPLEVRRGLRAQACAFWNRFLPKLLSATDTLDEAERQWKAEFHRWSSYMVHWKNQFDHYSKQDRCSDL"}, "source": "ChEMBL document CHEMBL1129057", "about": "“Structure-based alignment and comparative molecular field analysis of acetylcholinesterase inhibitors” (J Med Chem, 1996)"}
{"target": "Acetylcholinesterase (Homo sapiens, UniProt P22303)", "units": {"IC50": "nM"}}
{"smiles": "C=CC[N+](C)(C)c1ccc(CCC(=O)CCc2ccc([N+](C)(C)CC=C)cc2)cc1", "IC50": 8}
{"smiles": "CCCCCCCCNC(=O)Oc1ccc2c(c1)[C@]1(C)CCN(C)C1N2C", "note": "(stereo partly drawn)", "IC50": 110}
{"smiles": "COc1ccc(NC(=O)Oc2ccc3c(c2)[C@]2(C)CCN(C)C2N3C)cc1", "note": "(stereo partly drawn)", "IC50": 1700}
